Experimental data published in PubChem BioAssay AID493091 (Sanford-Burnham Center for Chemical Genomics, 2011).
This is a selection; strong and weak results do not stand in their true shares. Activity calls are given as the source filed them.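 Rule for the calls: active = inhibition above about 50% at 20 µM (limit read from the data); inactive = the rest.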

Chains of the proteins cited; added tags and fusions are not shown. Lines headed by an entry give the natural chain unless they say otherwise; changes in a name come on top.
UniProt Q9GZU7: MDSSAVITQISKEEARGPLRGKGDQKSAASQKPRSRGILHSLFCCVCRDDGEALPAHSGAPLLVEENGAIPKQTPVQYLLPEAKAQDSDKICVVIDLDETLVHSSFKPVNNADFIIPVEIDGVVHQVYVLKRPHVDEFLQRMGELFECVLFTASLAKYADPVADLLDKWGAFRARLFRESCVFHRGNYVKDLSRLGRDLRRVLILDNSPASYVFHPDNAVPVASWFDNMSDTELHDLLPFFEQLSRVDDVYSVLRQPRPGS

target: Carboxy-terminal domain RNA polymerase II polypeptide A small phosphatase 1 (Homo sapiens) (UniProt Q9GZU7); assay: Scp-1 phosphatase inhibitors, primary screen, biochemical, colorimetric, uHTS (AID 493091); conditions: Recombinant Scp1, phosphopeptide, malachite green phosphate absorbance; at 20 µM; active compounds read high;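 note: plate controls were DMSO wells with enzyme for no effect and wells lacking enzyme for full effect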
Method in brief: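 System: truncated SCP-1 phosphatase (76-261aa); medium: Tris acetate buffer pH 5.5 with MgCl2 and Tween-20; incubation: 45 min room-temperature reaction, 5 min colour, 30 min stabiliser; compound: single 20 µM dose, 1% DMSO; reagent: Phosphorylated 17-residue peptide substrate; read-out: % inhibition at 20 µM; technique: colorimetric free-phosphate detection, absorbance 630 nm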

| SMILES | inhibition |
| --- | --- |
| CC(NC(=O)COC(=O)C(O)(c1ccccc1)c1ccccc1)c1ccccc1 (configuration not stated) | inactive: -2.35% |
| Cc1ccccc1OP(=O)(Nc1ccccn1)Oc1ccccc1C | inactive: -8.94% |
| O=c1c2cc([N+](=O)[O-])ccc2[nH]c2c([N+](=O)[O-])cc([N+](=O)[O-])cc12 | inactive: -0.75% |
| CN(C)C(=O)Oc1noc2ccccc12 | inactive: -9.52% |
| c1ccc(-c2nn[nH]n2)c(-c2nn[nH]n2)c1 | inactive: 1.45% |
| Cc1ccc(NP(=O)(Oc2cccc(C)c2)Oc2cccc(C)c2)nc1 | inactive: -4.25% |
| CCNC(=S)/N=C(\N)N[N+](=O)[O-] | inactive: -1.87% |
| O=C(NC1CCS(=O)(=O)C1)NP(=S)(Oc1ccccc1)Oc1ccccc1 (configuration not stated) | inactive: -5.19% |
| O=P1(N(CCCl)CCCl)OCCC2CCCCN21 (configuration not stated) | inactive: -2.23% |
| O=[As](O)(c1ccccc1)c1ccc(O)cc1 | inactive: 3.46% |
| O=[N+]([O-])c1ccc(O)c(/C=N/Nc2ccc([N+](=O)[O-])cc2[N+](=O)[O-])c1 | inactive: -0.64% |
| O=[N+]([O-])c1ncn(CCn2cnc([N+](=O)[O-])n2)n1 | inactive: -9.01% |
| CC(=O)NC(SC(=S)N(C)C)C(Cl)(Cl)Cl (configuration not stated) | inactive: -2.27% |
| O=C(OC1CN2CCC1CC2)c1cccc(Cl)c1 (configuration not stated) | inactive: -9.67% |
| C(Cc1nn[nH]n1)Cc1nn[nH]n1 | inactive: -4.57% |
| Nc1ccc([As](=O)(O)c2ccc([N+](=O)[O-])cc2)cc1 | inactive: -9.01% |
| O=P(Nc1ccccn1)(c1ccc(Br)cc1)c1ccc(Br)cc1 | inactive: -1.31% |
| CN(C)C1(CNC(=O)c2ccc(Cl)c(S(N)(=O)=O)c2)CCCCC1 | inactive: -9.04% |
| COc1ccc(N)c([N+](=O)[O-])c1[N+](=O)[O-] | inactive: 21.8% |
| O=P(Nc1nc2ccccc2s1)(c1ccccc1)c1ccccc1 | inactive: 0.89% |
| C[C@H]1OP(=O)(Oc2ccccc2)[C@H](O)[C@H](O)[C@H]1N=[N+]=[N-] (some centres not stated) | inactive: -2.7% |
| CC(C)C(=O)NC(Sc1ccccc1)C(Cl)(Cl)Cl (configuration not stated) | inactive: -1% |
| O=P(Nc1nccs1)(c1ccccc1)c1ccccc1 | inactive: 5.56% |
| c1nnnn1CCn1cnnn1 | inactive: 0% |
| CCN(/C(=N/P(=O)(N1CCOCC1)N1CCOCC1)N1CCOCC1)c1ccc(OC)cc1 | inactive: -4.6% |
| Nc1ccc([As](=O)(O)c2ccc(N)cc2)cc1 | inactive: -20.2% |
| C[N+]1=C2C=CC=CC=C2SC12C([N+](=O)[O-])=CC([N+](=O)[O-])=C[C-]2[N+](=O)[O-] (configuration not stated) | active: 73.2% |
